Assay results reported in patent publication US12102709B2, “Anti-obesity agent, anti-dementia agent, deodorant, anti-aging agent, anti-glycation agent, anti-type I allergy agent, hypotensive agent, flavor improving agent, muscle enhancing agent, and bone metabolism improving agent” (Mitsui Sugar Co., Ltd., priority 2018, dated 2024).

System: MC3T3-E1 cells
Assay: Osteoblast differentiation promotion test (ALP activity)
Assay type: cell-based, mouse
Conditions: extracts 100 μg/mL
Procedure: (Cells) • Mouse calvaria-derived cells MC3T3-E1 (Riken Cell Bank, RCB1126)
MC3T3-E1 cells were cultivated using a growth culture medium in a T-75 flask (75 cm^2 U-shaped canted neck cell culture flask, commercially available from Corning Co., Ltd.). The T-75 flask was put into a CO2 incubator (5% CO2, 37° C., wet) and the C2C12 cells were cultured. The culture medium was replaced every other day, and when an 80% confluence was reached, the cells were collected and used for the test.
Promoted osteoblast differentiation in MC3T3-E1 cells was confirmed using an alkaline phosphatase (ALP) activity, which is one of osteoblast differentiation markers, as an index.
Pre-cultured MC3T3-E1 cells were adjusted in a culture medium at 1.2×10^5 cells/0.2 mL/well and seeded in a 48-well plate. The next day, the culture medium was replaced with a culture medium containing 100 μg/mL of the extract A (Example j1-1), a culture medium containing 100 μg/mL of the extract W and 1% (v/v) ethanol (Example j1-2), a culture medium containing no extract (Comparative Example j1-1), a culture medium containing no extract but containing 1% (v/v) ethanol (Comparative Example j1-2), or a culture medium containing BMP-2 (Positive Control j1), and they were cultured for 7 days, for 14 days, and for 21 days. After culturing each day, the cells were washed once with PBS, and each plate was frozen and stored. The culture medium was replaced every 3 to 4 days.
The cells after freezing and storage were washed with PBS and then lysed with a cell lysis agent (Cell-LyEX1 containing 2 mM phenylmethylsulfonyl fluoride (PMSF)) at 100 μL/well. […] The amount of ALP in the cells was measured using an alkaline phosphatase activity measurement kit (LabAssay ALP). In this kit, the ALP activity was measured from the amount of p-nitrophenol per unit protein amount produced within a certain time. The amount of proteins in the solution was measured using a Micro BCA Protein Assay Reagent Kit. The test was performed 5 times, and the average value (n=5) of ALP activities was calculated.

Which results are given for “Positive Control j1: Recombinant bone morphogenetic protein (Bone Morphogenetic Protein-2 (BMP-2))”?
ALP activity (On the 7th day of culture): 0.053 ± 0.006 unit/μg proteins; ALP activity (On the 14th day of culture): 0.217 ± 0.024 unit/μg proteins; ALP activity (On the 21st day of culture): 0.287 ± 0.005 unit/μg proteins
